Data from patent US12239637B2, “Compositions and methods for treating neurological disorders” (priority 2018, dated 2025).

Test system: rhesus monkeys
Experiment: Adverse effects of maraviroc treatment: intact side nigrostriatum and drug related side effects
Type: in vivo
Experimental: Female rhesus monkeys (6-8 years old; 5-7 kg) were used in this study. All animals were singly housed with a 12-h light/dark cycle. Purine monkey chow and water were available ad libitum. Diets were supplemented with fruit during the testing sessions. The study was performed in accordance with federal guidelines of proper animal care and with the approval of the IACUC. Monkeys were intoxicated with MPTP according to protocol described previously (12-16). Briefly, animals were tranquilized with ketamine (10 mg/kg, i.m.) and then maintained on an anesthetic plane with isoflurane (1-2%). The animals were put in the supine position. For each injection, a right-sided incision was made along the medial edge of the sternocleidomastoid muscle. The carotid sheath was opened and the common carotid artery, internal jugular vein, and vagus nerves were identified. The common carotid was exposed below the carotid bifurcation. The external carotid artery was then ligated. A 27 gauge butterfly needle was inserted into the common carotid artery in a direction retrograde to blood flow; for each injection, 20 ml of saline containing 3 mg of MPTP-HCl (Sigma) was infused at a rate of 1.33 ml/min (15 min). After the infusion was completed, 3 ml of saline was delivered, and then the incision was closed. […]

maraviroc
drug related side effect (hair loss, untoward infection, hyperkinesia, psychological disturbance, vomiting, diarrhea) (during maraviroc treatment, oral 1 mg/kg body wt/d): did not observe any drug related side effect | change in nigral dopaminergic neurons, striatal TH fiber density and striatal neurotransmitters in the intact side (intact side, after 30 d of maraviroc treatment): did not see any significant change
